Experiment [1] concerns Epidermal growth factor receptor (Homo sapiens), P00533 [L858R,T790M,C797S]. As to the kind of experiment: Potency index, ratio of brigatinib IC50 to test compound IC50 for inhibition of EGFR L858R/T790M/C797S triple mutant (unknown origin) using TK as substrate incubated for 120 mins in presence of ATP by HTRF assay. Background: In TR-FRET formats the signal depends on donor and acceptor labels being close together.

The subject of experiment [2] is Epidermal growth factor receptor (Homo sapiens), P00533 [UNDEFINED MUTATION]. As to the kind of experiment: Potency index, ratio of brigatinib IC50 to test compound IC50 for inhibition of EGFR Del19/T790M/C797S triple mutant (unknown origin) using TK as substrate incubated for 120 mins in presence of ATP by HTRF assay.

SMILES strings stand for the structures.

As to `COc1cc(N2CCC(N3CC(N(C)C)C3)CC2)c(C)cc1Nc1ncc(Br)c(Nc2ccc3nccnc3c2P(C)(C)=O)n1`, the Ratio IC50 was above 30 in experiment [1] and above 10 in experiment [2].

Values taken from ChEMBL document CHEMBL5325448, “Design, synthesis and biological evaluation of phosphoroxy quinazoline derivatives as potential EGFRT790M/C797S inhibitors” (Bioorg Med Chem, 2023).
